Data from article PMC8449129, “Single tracer-based protocol for broad-spectrum kinase profiling in live cells with NanoBRET” (STAR Protocols, 2021).

Chains of the proteins cited; added tags and fusions are not shown. Residues count along the entry.
UniProt O15146, 24-869: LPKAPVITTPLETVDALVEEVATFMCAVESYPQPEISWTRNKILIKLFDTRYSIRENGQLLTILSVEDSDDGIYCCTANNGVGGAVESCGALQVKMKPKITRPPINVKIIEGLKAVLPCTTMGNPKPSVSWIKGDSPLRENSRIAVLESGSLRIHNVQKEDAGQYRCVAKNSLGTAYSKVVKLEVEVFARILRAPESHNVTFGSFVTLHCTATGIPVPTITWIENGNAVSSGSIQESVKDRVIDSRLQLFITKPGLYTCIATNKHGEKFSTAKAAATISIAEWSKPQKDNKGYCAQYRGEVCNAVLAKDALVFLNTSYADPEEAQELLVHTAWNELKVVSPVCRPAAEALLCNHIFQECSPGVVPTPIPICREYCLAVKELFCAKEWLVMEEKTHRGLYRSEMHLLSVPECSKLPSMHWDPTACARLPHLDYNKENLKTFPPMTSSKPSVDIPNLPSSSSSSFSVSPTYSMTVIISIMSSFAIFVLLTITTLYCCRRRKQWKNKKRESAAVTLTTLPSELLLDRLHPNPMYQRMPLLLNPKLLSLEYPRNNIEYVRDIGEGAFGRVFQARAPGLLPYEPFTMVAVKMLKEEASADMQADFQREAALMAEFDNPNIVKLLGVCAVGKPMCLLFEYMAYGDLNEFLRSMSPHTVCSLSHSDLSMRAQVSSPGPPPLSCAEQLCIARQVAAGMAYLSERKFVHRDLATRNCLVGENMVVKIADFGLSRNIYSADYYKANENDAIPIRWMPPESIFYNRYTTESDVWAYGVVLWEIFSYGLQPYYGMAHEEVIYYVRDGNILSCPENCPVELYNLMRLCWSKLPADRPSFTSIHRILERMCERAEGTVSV
UniProt Q12866, 21-999: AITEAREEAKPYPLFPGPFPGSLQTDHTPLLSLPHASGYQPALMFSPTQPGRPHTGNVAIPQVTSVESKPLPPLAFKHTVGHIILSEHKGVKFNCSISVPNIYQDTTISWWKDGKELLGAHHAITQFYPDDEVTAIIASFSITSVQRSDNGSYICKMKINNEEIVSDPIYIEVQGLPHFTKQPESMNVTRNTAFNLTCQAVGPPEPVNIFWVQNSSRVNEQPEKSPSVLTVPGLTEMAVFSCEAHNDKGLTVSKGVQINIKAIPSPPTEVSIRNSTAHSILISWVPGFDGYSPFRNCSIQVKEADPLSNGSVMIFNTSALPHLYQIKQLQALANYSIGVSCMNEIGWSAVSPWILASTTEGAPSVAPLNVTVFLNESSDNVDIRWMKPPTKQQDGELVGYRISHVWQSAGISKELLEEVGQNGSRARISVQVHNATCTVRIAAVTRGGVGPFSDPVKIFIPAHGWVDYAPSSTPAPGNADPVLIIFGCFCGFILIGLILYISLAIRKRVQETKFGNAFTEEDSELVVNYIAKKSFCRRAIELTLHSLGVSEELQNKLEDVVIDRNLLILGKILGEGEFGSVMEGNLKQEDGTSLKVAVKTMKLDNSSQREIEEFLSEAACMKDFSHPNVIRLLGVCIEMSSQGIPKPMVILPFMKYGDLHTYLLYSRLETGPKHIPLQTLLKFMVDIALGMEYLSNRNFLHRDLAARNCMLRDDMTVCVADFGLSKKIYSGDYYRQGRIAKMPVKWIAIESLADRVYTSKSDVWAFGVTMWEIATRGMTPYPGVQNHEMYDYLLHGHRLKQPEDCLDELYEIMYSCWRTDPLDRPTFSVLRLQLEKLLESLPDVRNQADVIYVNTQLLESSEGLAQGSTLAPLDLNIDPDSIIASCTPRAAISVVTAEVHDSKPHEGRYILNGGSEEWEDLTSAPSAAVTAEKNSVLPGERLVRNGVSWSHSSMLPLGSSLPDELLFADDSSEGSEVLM

Legend:
[1] = molecular target: MUSK (Homo sapiens, UniProt O15146); details: […] crizotinib; […] Tracer K10; […] h, […] C; n = […]
[2] = molecular target: MERTK (Homo sapiens, UniProt Q12866); details: […] crizotinib; […] Tracer K10; […] h, […] C; n = […]

Crizotinib % occupancy, 1 uM [1]: 80 ± 2.8% | Crizotinib % occupancy, 1 uM [2]: 58 ± 3.3%
SMILES: C[C@@H](Oc1cc(-c2cnn(C3CCNCC3)c2)cnc1N)c1c(Cl)ccc(F)c1Cl [crizotinib]
